Assays:
[1] = Half life of the compound at pH 7.4 at 37 degC at 9.03 x 10' -3 M; conditions: pH 7.4, 9030 µM
[2] = Half life of the compound at pH 7.4 at 37 degC at 1.31 x 10' -2 M; conditions: pH 7.4, 13100 µM
[3] = Half life of the compound at pH 7.4 at 37 degC at 6.57 x 10' -3 M; conditions: pH 7.4, 6570 µM
[4] = Hydrolysis of the compound at pH 7.4 at 37 degC assessed as first-order rate coefficient at 1.31 x 10' -2 M; conditions: buffer, pH 7.4, 13100 µM
[5] = Hydrolysis of the compound at pH 7.4 at 37 degC assessed as first-order rate coefficient at 9.03 x 10' -3 M; conditions: buffer, pH 7.4, 9030 µM
[6] = Hydrolysis of the compound at pH 7.4 at 37 degC assessed as first-order rate coefficient at 6.57 x 10' -3 M; conditions: buffer, pH 7.4, 6570 µM
[7] = Hydrolysis of the compound at pH 7.4 at 37 degC assessed as first-order rate coefficient at 1.03 x 10' -2 M; conditions: buffer, pH 7.4, 10300 µM
[8] = Half life of the compound at pH 7.4 at 37 degC at 1.03 x 10' -2 M; conditions: pH 7.4, 10300 µM
[9] = Half life of the compound at pH 7.4 at 37 degC at 1 x 10' -2 M; conditions: pH 7.4, 10000 µM
[10] = Hydrolysis of the compound at pH 7.4 at 37 degC assessed as first-order rate coefficient at 1 x 10' -2 M; conditions: buffer, pH 7.4, 10000 µM
[11] = Hydrolysis of the compound at 23.5 to 37.0 degC assessed as activation energy at 6.56 x 10' -3 M; conditions: 6560 µM
[12] = Hydrolysis of the compound at pH 5.4 at 37 degC assessed as first-order rate coefficient at 6.56 x 10' -3 M; conditions: buffer, pH 5.4, 6560 µM
[13] = Hydrolysis of the compound at 296.7 K assessed as first-order rate coefficient at 6.56 x 10' -3 M
[14] = Hydrolysis of the compound at 302.2 K assessed as first-order rate coefficient at 6.56 x 10' -3 M; conditions: 6560 µM
[15] = Half life of the compound at pH 7.4 at 37 degC at 6.56 x 10' -3 M; conditions: pH 7.4, 6560 µM
[16] = Half life of the compound at pH 5.4 at 37 degC at 6.56 x 10' -3 M; conditions: pH 5.4, 6560 µM
[17] = Hydrolysis of the compound at pH 7.4 at 37 degC assessed as first-order rate coefficient at 6.56 x 10' -3 M; conditions: buffer, pH 7.4, 6560 µM
[18] = Hydrolysis of the compound at pH 2.6 at 37 degC assessed as first-order rate coefficient at 6.56 x 10' -3 M; conditions: buffer, pH 2.6, 6560 µM
[19] = Half life of the compound at pH 2.6 at 37 degC at 6.56 x 10' -3 M; conditions: pH 2.6, 6560 µM
[20] = Hydrolysis of the compound at 310.2 K assessed as first-order rate coefficient at 6.56 x 10' -3 M; conditions: 6560 µM
[21] = Half life of the compound at pH 7.4 at 37 degC at 6.55 x 10' -3 M; conditions: pH 7.4, 6550 µM
[22] = Hydrolysis of the compound at pH 7.4 at 37 degC assessed as first-order rate coefficient at 6.55 x 10' -3 M; conditions: buffer, pH 7.4, 6550 µM
[23] = Hydrolysis of the compound at pH 7.4 at 37 degC assessed as first-order rate coefficient at 1.33 x 10' -2 M; conditions: buffer, pH 7.4, 13300 µM
[24] = Half life of the compound at pH 7.4 at 37 degC at 1.33 x 10' -2 M; conditions: pH 7.4, 13300 µM
[25] = Hydrolysis of the compound at pH 7.4 at 37 degC assessed as first-order rate coefficient at 6.21 x 10' -3 M; conditions: buffer, pH 7.4, 6210 µM
[26] = Hydrolysis of the compound at pH 7.4 at 37 degC assessed as first-order rate coefficient at 1.20 x 10' -2 M; conditions: buffer, pH 7.4, 12000 µM
[27] = Half life of the compound at pH 7.4 at 37 degC at 6.21 x 10' -3 M; conditions: pH 7.4, 6210 µM
[28] = Half life of the compound at pH 7.4 at 37 degC at 1.20 x 10' -2 M; conditions: pH 7.4, 12000 µM

Structure (SMILES): O=C(CCSCCCl)Nc1ccc([As](=O)(O)O)cc1
- t1/2 [1]: 1.5 min
- t1/2 [2]: 2 min
- t1/2 [3]: 1.22 min
- K [4]: 5.6 ×10⁻³ /s
- K [5]: 7.6 ×10⁻³ /s
- K [6]: 9.5 ×10⁻³ /s
- K [7]: 7 ×10⁻³ /s
- t1/2 [8]: 1.65 min

Structure (SMILES): O=C(CCSCCCl)Nc1ccc(P(=O)(O)O)cc1
- t1/2 [9]: 2.33 min
- K [10]: 4.8 ×10⁻³ /s

Structure (SMILES): O=C(CCCSCCCl)Nc1ccc([As](=O)(O)O)cc1
- Ea [11]: 23.3 kcal/mol
- t1/2 [2]: 1.47 min
- K [12]: 9.4 ×10⁻³ /s
- K [4]: 7.8 ×10⁻³ /s
- K [13]: 3.48 ×10⁻³ /s
- K [14]: 7.75 ×10⁻³ /s
- t1/2 [15]: 0.567 min
- t1/2 [16]: 1.22 min
- K [17]: 2 ×10⁻² /s
- K [18]: 6.6 ×10⁻³ /s
- t1/2 [19]: 1.67 min
- K [20]: 2.02 ×10⁻² /s

Structure (SMILES): O=C(CCCSCCCl)Nc1ccc(P(=O)(O)O)cc1
- t1/2 [9]: 1.67 min
- t1/2 [21]: 1.3 min
- K [10]: 6.8 ×10⁻³ /s
- K [22]: 8.9 ×10⁻³ /s
- K [23]: 5.6 ×10⁻³ /s
- t1/2 [24]: 2 min

Structure (SMILES): O=C(CCCSCCCl)Nc1ccc(O)cc1
- K [25]: 1 ×10⁻² /s
- K [26]: 9.4 ×10⁻³ /s
- t1/2 [27]: 1.15 min
- t1/2 [28]: 1.23 min

— ChEMBL document CHEMBL3272065 (J Med Chem, 1977)
